Source: patent publication US8247531B2, “Mutant epidermal growth factor polypeptides, nucleic acids, and uses therefor” (priority 2006, dated 2012)

Tests used:
EGFR = EGFR (Homo sapiens, UniProt P00533); assay: EGFR phosphorylation (Tyr1173 phospho-EGFR/total EGFR) by Western blot in NR6 fibroblast cells; assay type: cell-based; conditions: 1 min at 37° C., Tyr1173 phospho-EGFR
Protocol: EGFR phosphorylation in the presence of wt EGF and mutant clone 28 was evaluated. Cells were lysed and levels of Tyr1173 phospho-EGFR were measured by Western blot, probing with a phospho-specific rabbit polyclonal antibody (Santa Cruz Biotech). Blots were stripped and reprobed with rabbit polyclonal EGFR to determine the total amount of EGFR protein present. Westerns were developed using enhanced chemiluminescence, and band density of was quantitated using a Bio-Rad Fluor-S Imager. Data shown is the ratio of phosphorylated EGFR/total EGFR.

[1] = molecular target: T1, EGFR on NR6 fibroblast cells (Homo sapiens, UniProt P00533); assay: Competition binding of soluble EGF to EGFR on NR6 fibroblast cells (flow cytometry, Alexa-488 labeled wt EGF)
T1 construct: expressed in transfected cells; host or cells: NR6 fibroblast cells
Protocol: (§1) Fluorescence intensity of cell surface labeling was measured by flow cytometry.
as §1
This mutant was tested using one of the binding assays described herein in which binding to EGFR expressed on cells is measured. […] Fluorescence intensity of cell surface labeling was measured by flow cytometry.

NSDSECPLSHDGYCLHGGVCMYIKAVDRYACNCVVGYIGERCQYRDLTWWGPR [clone 28]
receptor phosphorylation (ratio of phosphorylated EGFR/total EGFR) (EGFR): increases receptor phosphorylation
increase in affinity over wt EGF ([1]; competition binding): 5 to 10 fold
Kd ([1]; competition with Alexa-488 labeled wt EGF, 2 hr at 4° C., read-out: Dissociation constants at half-maximal values): 0.26 ± 0.03 nM
